Experimental data as given in PMC12874371, “Screening of FDA-Approved Small Molecules to Discover Inhibitors of the Pseudomonas aeruginosa Quorum-Sensing Enzyme, PqsE” (Biochemistry, 2026).

By UniProt entry, the sequences of proteins in these tests, tags left out.
UniProt P20581, whole entry S285W: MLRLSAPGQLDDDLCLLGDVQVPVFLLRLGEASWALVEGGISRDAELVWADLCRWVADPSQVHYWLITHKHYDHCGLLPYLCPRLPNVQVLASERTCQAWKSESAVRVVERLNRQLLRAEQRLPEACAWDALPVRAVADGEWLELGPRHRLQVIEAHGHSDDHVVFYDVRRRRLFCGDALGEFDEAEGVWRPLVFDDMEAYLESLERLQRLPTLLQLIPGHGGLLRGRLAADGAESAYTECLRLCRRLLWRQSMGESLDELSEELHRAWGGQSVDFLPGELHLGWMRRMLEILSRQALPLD

Assays:
[1] = molecular target: T1, intracellular PqsE (Pseudomonas aeruginosa, UniProt P20581); format: cell-based; conditions: 10 and 100 μM, 8 h growth
T1 construct: endogenous in cells; host or cells: P. aeruginosa UCBPP-PA14 wild type

[2] = molecular target: T2, PqsE(S285W) (Pseudomonas aeruginosa, UniProt P20581, S285W); format: biochemical; conditions: esterase assay
T2 construct: 6xHis (N); made in house; host or cells: E. coli BL21 (DE3), pET28b-6xHis-pqsE(S285W) (strain IT55)

[3] = molecular target: T3, PqsE (Pseudomonas aeruginosa, UniProt P20581); format: binding; conditions: dilution series, 2 μM PqsE, result in words
T3 construct: 6xHis (N); made in house; host or cells: E. coli BL21 (DE3), pET28b-6xHis-pqsE(WT) (strain SM776)

Row | Structure (SMILES) | Effect on acetophenone levels [1] | Potency against PqsE(S285W) compared to PqsE(WT) ([2]; result in words) | Competition with BB562 probe, dose-response fluorescence polarization [3] | Increase of IC50 against PqsE(S285W) versus PqsE(WT) [2] [fold]
1 | O=c1n(CCCN2CCN(c3cccc(Cl)c3)CC2)nc2ccccn12 [Trazodone] | no significant effect on acetophenone levels | less potent | did not reduce fluorescence polarization fully to baseline levels | 
2 | O=C(CCCCCCC(=O)Nc1ccccc1)NO [Vorinostat] |  |  |  | 10
